Test results as given in US20030082226A1, “Non-steroidal antiinflammatory drug formulations for topical application to the skin” (priority 1997, published 2003).

Assay: Delivery of various NSAIDs through human skin, effect of propylene glycol, static cells (Example 8)
Format: in vitro ADME
Conditions: 10% enhancer, 0 to 20% PG
Excerpt: All the tested formulations included ethanol and water at a 70:30 weight ratio and were neutralized with base to a pH of about 7.

Row | effect of propylene glycol on total delivery (percent of original dose) at twenty four hours | Structure (SMILES)
1 | negative | CC(C)Cc1ccc(C(C)C(=O)O)cc1 (centres unmarked) [Ibuprofen]
2 | positive | O=C(O)Cc1ccccc1Nc1c(Cl)cccc1Cl [Diclofenac]
